Literature values, collected in patent publication US7147837B2, “Bioactivated diagnostic imaging constrast agents” (Epix Pharmaceuticals, Inc., priority 1996, dated 2006).

Tested on: alpha 1-acid glycoprotein (AAG)
Conditions: binding to AAG; cited from earlier work

**Q.** With CN(C)CCCN1c2ccccc2CCc2ccccc21 [imipramine] as the compound, how does the Ka read?
**A.** 2.4×10^5
